Experimental data as given in ChEMBL document CHEMBL1144454, “Design, synthesis, and biological activities of pyrrolylethanoneamine derivatives, a novel class of monoamine oxidases inhibitors” (J Med Chem, 2005).

Assay: Selectivity for bovine Monoamine oxidase A as ratio of Ki(MAO-B)/Ki(MAO-A)

Compound	A-selectivity
Cn1cccc1C(=O)[C@H](c1ccccc1)N1CCCC1	52600
Cn1cccc1C(=O)C(c1ccccc1)N1CCCC1 (racemic)	80000
Cn1cccc1C(=O)[C@@H](c1ccccc1)N1CCCC1	200000
